Where two headings read alike, the source gives them in different places.
Legend:
hM3 muscarinic receptor = hM3 muscarinic receptor (Homo sapiens (Human), UniProt P20309); assay: Radioligand binding assay for muscarinic receptors ([3H]-NMS displacement, CHO cell membranes)
Description: The cells were grown in a 5% CO2, 37° C. incubator and lifted with 2 mM EDTA in dPBS. Cells were collected by 5 minute centrifugation at 650×g, and cell pellets were either stored frozen at −80° C. or membranes were prepared immediately for use. For membrane preparation, cell pellets were resuspended in lysis buffer and homogenized with a Polytron PT-2100 tissue disrupter (Kinematica AG; 20 seconds×2 bursts). Crude membranes were centrifuged at 40,000×g for 15 minutes at 4° C. The membrane pellet was then resuspended with re-suspension buffer and homogenized again with the Polytron tissue disrupter. The protein concentration of the membrane suspension was determined by the method described in Lowry et al., 1951, […], 193, 265. All membranes were stored frozen in aliquots at −80° C. or used immediately. […] The membranes were briefly homogenized using a Polytron tissue disruptor (10 seconds) prior to assay plate addition. […] The test compounds were initially dissolved to a concentration of 400 μM in dilution buffer and then serially diluted 5× with dilution buffer to final concentrations ranging from 10 μM to […]. The order of addition and volumes added to the assay plates were as follows: 25 μL radioligand, 25 μL diluted test compound, and 50 μL membranes. Assay plates were incubated for 6 hours at 37° C. […] Filter plates were rinsed three times with wash buffer (10 mM HEPES) to remove unbound radioactivity. The plates were then air-dried and 50 μL Microscint-20 liquid scintillation fluid (PerkinElmer, Inc.) were added to each well. The plates were then counted in a PerkinElmer Topcount liquid scintillation counter (PerkinElmer, Inc.). Binding data were analyzed by nonlinear regression analysis with the GraphPad Prism Software package (GraphPad Software, Inc., San Diego, Calif.) using the one-site competition model. […] These summary statistics were then converted back to K; values for data reporting.

Amino acid sequences for entries named in this document (tags omitted).
UniProt P20309, whole entry: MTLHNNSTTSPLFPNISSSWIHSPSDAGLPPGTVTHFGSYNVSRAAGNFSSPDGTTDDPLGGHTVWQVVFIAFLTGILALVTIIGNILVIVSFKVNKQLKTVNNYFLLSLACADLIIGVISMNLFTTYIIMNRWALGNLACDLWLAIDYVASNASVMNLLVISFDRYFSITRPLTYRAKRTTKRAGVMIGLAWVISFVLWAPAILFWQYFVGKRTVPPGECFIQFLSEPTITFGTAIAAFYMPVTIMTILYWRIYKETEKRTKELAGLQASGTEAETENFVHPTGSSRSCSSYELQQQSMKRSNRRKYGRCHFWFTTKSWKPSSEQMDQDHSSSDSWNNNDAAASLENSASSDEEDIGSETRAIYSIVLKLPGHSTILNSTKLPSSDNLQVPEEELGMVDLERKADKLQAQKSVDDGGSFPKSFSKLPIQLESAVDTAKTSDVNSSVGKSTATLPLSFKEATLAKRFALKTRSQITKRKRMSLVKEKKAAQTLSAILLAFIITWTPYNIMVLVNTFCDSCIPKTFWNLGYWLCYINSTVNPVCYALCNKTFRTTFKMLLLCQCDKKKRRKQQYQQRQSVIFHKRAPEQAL
UniProt P07550, whole entry: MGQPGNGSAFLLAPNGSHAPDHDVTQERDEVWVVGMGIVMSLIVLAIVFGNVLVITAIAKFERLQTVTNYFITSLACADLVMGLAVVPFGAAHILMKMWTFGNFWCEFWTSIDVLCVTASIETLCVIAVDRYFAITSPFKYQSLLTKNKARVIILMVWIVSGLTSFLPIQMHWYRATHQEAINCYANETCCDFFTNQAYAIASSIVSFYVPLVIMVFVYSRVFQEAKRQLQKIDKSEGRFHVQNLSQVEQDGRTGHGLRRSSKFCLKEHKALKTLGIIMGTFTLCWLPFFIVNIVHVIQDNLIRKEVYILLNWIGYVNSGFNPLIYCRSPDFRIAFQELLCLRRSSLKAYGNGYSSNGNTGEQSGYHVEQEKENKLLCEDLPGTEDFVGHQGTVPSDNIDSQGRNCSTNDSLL

hβ2 adrenergic receptor = hβ2 adrenergic receptor (Homo sapiens (Human), UniProt P07550); assay: Assay for determining adrenergic receptor agonist potency (cAMP Flashplate, HEK-293 cells); format: cell-based
Description: The cell monolayer was lifted with 2 mM EDTA in PBS. Cells were pelleted by centrifugation at 1,000 rpm, and cell pellets were either stored frozen at −80° C. or membranes were prepared immediately for use. cAMP assays were performed in a radioimmunoassay format using the Flashplate Adenylyl Cyclase Activation Assay System with [^125I]-cAMP (NEN SMP004, PerkinElmer Life Sciences Inc., Boston, Mass.), according to the manufacturers instructions. […] Cells were rinsed with PBS and detached in dPBS (Dulbecco's Phosphate Buffered Saline, without CaCl2 and MgCl2) containing 2 mM EDTA or Trypsin-EDTA solution (0.05% trypsin/0.53 mM EDTA). After counting cells in Coulter cell counter, cells were pelleted by centrifugation at 1,000 rpm and re-suspended in stimulation buffer containing TBMX (PerkinElmer Kit) pre-warmed to room temperature to a concentration of 1.6×10^6 to 2.8×10^6 cells/mL. About 40,000 to 80,000 cells per well were used in this assay. […] Reactions were incubated for 10 min at 37° C. and stopped by adding 100 μL of cold detection buffer containing [^125I]-cAMP (NEN SMP004, PerkinElmer Life Sciences, Boston, Mass.). […] Data were analyzed by nonlinear regression analysis with the GraphPad Prism Software package (GraphPad Software, Inc., San Diego, Calif.) with the sigmoidal equation. […]

For `C[C@H](Cc1cccc(CNC(=O)c2ccc(N(C)C(=O)CCN3CCC(OC(=O)Nc4ccccc4-c4ccccc4)CC3)cc2)c1)NC[C@H](O)c1ccc(O)c2[nH]c(=O)ccc12` [Compound I-50], the Ki (hM3 muscarinic receptor; hM3 Muscarinic Receptor Binding, data rounded to nearest 0.1 nM) was 0.4 nM.

`CC(Cc1ccc(NC(=O)c2cccc(N(C)C(=O)CCN3CCC(OC(=O)Nc4ccccc4-c4ccccc4)CC3)c2)cc1)NC[C@H](O)c1ccc(O)c2[nH]c(=O)ccc12` (stereo partly shown) [Compound I-40] gave a Ki (hM3 muscarinic receptor) of 0.1 nM.

Work on `CC(Cc1cc(CNC(=O)Cc2ccc(N(C)C(=O)CCN3CCC(OC(=O)Nc4ccccc4-c4ccccc4)CC3)cc2)ccc1F)NC[C@H](O)c1ccc(O)c2[nH]c(=O)ccc12` (stereo partly shown) [Compound I-73] yielded an EC50 (hβ2 adrenergic receptor) of 1 nM.

For `C[C@@H](Cc1ccc(NC(=O)c2cccc(N(C)C(=O)CCN3CCC(OC(=O)Nc4ccccc4-c4ccccc4)CC3)c2)cc1)NC[C@H](O)c1ccc(O)c2[nH]c(=O)ccc12` [Compound I-43], the Ki (hM3 muscarinic receptor) was 0.1 nM.

— patent US8551978B2 (Theravance, Inc., priority 2009, dated 2013)
